{
  "sequences": {"note": "Sequences of proteins named here, by UniProt entry; tags and fusion partners are left off.", "UniProt P21452, whole entry": "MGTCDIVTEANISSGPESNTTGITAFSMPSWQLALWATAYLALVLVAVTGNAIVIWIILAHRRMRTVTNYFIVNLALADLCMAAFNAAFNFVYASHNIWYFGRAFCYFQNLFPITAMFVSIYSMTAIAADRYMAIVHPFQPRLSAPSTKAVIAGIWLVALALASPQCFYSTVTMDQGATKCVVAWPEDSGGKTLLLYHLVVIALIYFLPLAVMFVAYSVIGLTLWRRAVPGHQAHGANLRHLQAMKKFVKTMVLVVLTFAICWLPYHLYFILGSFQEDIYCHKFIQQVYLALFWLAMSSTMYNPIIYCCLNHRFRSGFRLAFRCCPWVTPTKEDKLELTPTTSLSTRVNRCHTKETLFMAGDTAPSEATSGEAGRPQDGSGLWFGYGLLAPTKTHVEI"},
  "source": "BindingDB's records for doi:10.1016/j.ejmech.2013.01.044",
  "about": "(University of Siena, 2013)",
  "target": "Substance-K receptor (Homo sapiens, UniProt P21452)",
  "experiment": "Binding affinity to human NK2 receptor by radioligand displacement assay",
  "data": [
    {"smiles": "CCCC[C@H](NC(=O)[C@H](CC(C)C)NC(=O)CNC(=O)[C@@H](NC(=O)[C@H](Cc1ccccc1)NC(=O)[C@H](CO)NC(=O)[C@@H](N)CC(=O)O)C(C)C)C(N)=O", "values": [
      {"measurement": "IC50", "result": 9.2, "unit": "nM"}
    ]}
  ]
}
